“And” between values parts separate entries of the source, which are not always exact repeats. Identical values can stand only once. The entries are a selection whose mix differs from that of the whole data set. The source made the active and inactive calls. No stated cut-off is given here; in the data, active means binding response below about 49% or above about 150%; inactive means in between.
These compounds were tested against Guanine nucleotide-binding protein G(o) subunit alpha (Homo sapiens) (UniProt P09471) (assay: RGS4-Galphao interaction inhibitors and enhancers – biochemical, multiplexed bead flow cytometry, primary screen (AID 1415;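 further: fluorescent Galphao activated with aluminum fluoride binding bead-coupled RGS4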)). Conditions: at 10 µM, actives lie on both sides.

By UniProt entry, the sequences of proteins in these tests, tags left out.
UniProt P09471, whole entry, looked up: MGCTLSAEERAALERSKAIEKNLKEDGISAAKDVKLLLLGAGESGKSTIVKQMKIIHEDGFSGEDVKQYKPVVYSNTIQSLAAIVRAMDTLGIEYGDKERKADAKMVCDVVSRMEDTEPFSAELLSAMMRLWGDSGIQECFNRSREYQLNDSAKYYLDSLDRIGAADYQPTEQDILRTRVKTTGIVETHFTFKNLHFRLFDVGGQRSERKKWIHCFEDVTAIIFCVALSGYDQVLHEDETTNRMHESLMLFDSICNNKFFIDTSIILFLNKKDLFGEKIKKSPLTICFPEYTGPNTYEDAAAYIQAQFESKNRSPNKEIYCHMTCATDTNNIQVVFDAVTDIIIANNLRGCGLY

Row | SMILES | binding response (% of control)
1 | O=P(Nc1nc2ccccc2s1)(c1ccccc1)c1ccccc1 | inactive: 98.8%
2 | C[C@H]1OP(=O)(Oc2ccccc2)[C@H](O)[C@H](O)[C@H]1N=[N+]=[N-] (stereo partly specified) | inactive: 101%
3 | O=[N+]([O-])c1ncn(CCn2ncnc2[N+](=O)[O-])n1 | inactive: 103%
4 | CC(C)(C)C(=O)NC(Sc1ccncn1)C(Cl)(Cl)Cl (stereo unspecified) | inactive: 100%
5 | O=C(O)CNc1ccc([As](=O)(O)O)cc1 | inactive: 121%
6 | O=[N+]([O-])c1cccc(NC2=NCC(CBr)S2)c1 (stereo unspecified) | inactive: 103%
7 | O=C(Nc1cc([As](=O)(O)O)ccc1O)c1ccccc1 | inactive: 111%
8 | CCN(/C(=N/P(=O)(N1CCOCC1)N1CCOCC1)N1CCOCC1)c1ccc(OC)cc1 | inactive: 101%
9 | Nc1ccc([As](=O)(O)c2ccc(N)cc2)cc1 | inactive: 104%
10 | C[N+]1=C2C=CC=CC=C2SC12C([N+](=O)[O-])=CC([N+](=O)[O-])=C[C-]2[N+](=O)[O-] (stereo unspecified) | inactive: 89.7%
11 | CC1CCN(C(=O)Oc2c(Cl)cc(Cl)c3cccnc23)CC1 | inactive: 93%
12 | CC(C)=N/N=C(\N)N[N+](=O)[O-] | inactive: 96.4%
13 | CN(C)C(=O)OCCc1n(C)cc[n+]1C | inactive: 101%
14 | COc1ccc(C2=NCC(CBr)S2)cc1 (stereo unspecified) | inactive: 103%
15 | Cc1ccc(NP(=O)(Oc2ccccc2)Oc2ccccc2)nc1 | inactive: 105%
16 | O=[N+]([O-])c1cc([N+](=O)[O-])c(CCNc2ccccc2)c([N+](=O)[O-])c1 | inactive: 102%
17 | CCc1nc2c(n1)c1c(non1O)c1c2no[n+]1[O-] | inactive: 104%
18 | CC(=O)N1C2C3N(C(C)=O)C1C1N(C(C)=O)C(C(N1C(C)=O)N3C(C)=O)N2C(C)=O | inactive: 103%
19 | O=[N+]([O-])c1cccc2n[nH]nc12 | inactive: 99.2%
20 | Oc1ccccc1CNc1ccccn1 | inactive: 104%
21 | O=C(NC(Sc1ccncn1)C(Cl)(Cl)Cl)c1ccccc1 (stereo unspecified) | inactive: 101%
22 | Cc1c2non([O-])c-2c(C)[n+](=O)[n+]1[O-] | inactive: 93.3%

Row | SMILES | binding response (% of control)
23 | Nc1cc(N)c2nonc2c1[N+](=O)[O-] | inactive: 104%
24 | CC(C)CC(=O)NC(Sc1ccc(Cl)cc1)C(Cl)(Cl)Cl (stereo unspecified) | inactive: 97.9%
25 | Cc1ccc(N/C(=N/P(=O)(N2CCOCC2)N2CCOCC2)N2CCOCC2)cc1 | inactive: 103%
26 | NC(=O)c1cc([N+](=O)[O-])cc([N+](=O)[O-])c1N | inactive: 102%
27 | CN1CCCC(OC(=O)C(c2ccccc2)c2ccccc2)C1 (stereo unspecified) | inactive: 104%
28 | Clc1ccc(Cl)c(NC2=NCC(CBr)S2)c1 (stereo unspecified) | inactive: 107%
29 | COc1ccccc1OP(=O)(Nc1ccc(C)cn1)Oc1ccccc1OC | inactive: 102%
30 | Cc1ccc(OP(=O)(Nc2nccs2)Oc2ccc(C)cc2)cc1 | inactive: 109%
31 | Nc1cccc2ccc([As](=O)(O)O)cc12 | inactive: 94.9%
32 | CCN(N=Nc1nonc1N)c1nonc1N | inactive: 97%
33 | O=P(Nc1nc2ccc(Cl)cc2s1)(c1ccccc1)c1ccccc1 | inactive: 96.4%
34 | CC(=O)Nc1ccc([As](=O)(O)O)cc1 | inactive: 89.6%
35 | O=C(O)c1ccccc1[As](=O)(O)O | inactive: 96.3%
36 | Cc1cc(SC(NC(=O)c2ccc(F)cc2)C(Cl)(Cl)Cl)ncn1 (stereo unspecified) | inactive: 99.1%
37 | CCOP(=O)(Nc1ccccc1)OCC | inactive: 101% and inactive: 104%
38 | Cc1ccc(NP(=O)(Oc2ccccc2F)Oc2ccccc2F)nc1 | inactive: 105%
39 | ClCCSc1nnc(-c2cccnc2)o1 | inactive: 100%
40 | CC(C)c1ccc(OP(=O)(Nc2ccccn2)Oc2ccccc2F)cc1 (stereo unspecified) | inactive: 77.3%
41 | CC(C)NC(=O)NP(=O)(Oc1ccccc1)Oc1ccccc1 | inactive: 94.8%
42 | CCN(CC)C(=S)SC(NC=O)C(Cl)(Cl)Cl (stereo unspecified) | inactive: 103%
43 | O=[N+]([O-])c1cc([N+](=O)[O-])c(-c2ccn[nH]2)s1 | inactive: 100%
44 | C[As](=O)(O)c1cccc(C(=O)O)c1 | inactive: 77%

Row | SMILES | binding response (% of control)
45 | O=[As](O)(c1ccc(O)cc1)c1ccccc1O | inactive: 98.1%
46 | Cc1ccc(OP(=O)(Nc2ccc([N+](=O)[O-])cn2)Oc2ccc(C)cc2)cc1 | inactive: 97.7%
47 | Cc1ccc2nc3c(c(C)c2c1)CC(C(Cl)Cl)S3 (stereo unspecified) | inactive: 105%
48 | COc1ccc(N/C(=N/P(=O)(N2CCOCC2)N2CCOCC2)N2CCOCC2)cc1 | inactive: 101%
49 | Cc1c2c(nc3ccccc13)SC(C(Cl)Cl)C2 (stereo unspecified) | inactive: 91.9%
50 | O=C(OC1CN2CCC1CC2)C12CC3CC(CC(C3)C1)C2 (stereo unspecified) | inactive: 101%
51 | Cc1cc(=O)[nH]c(N[N+](=O)[O-])n1 | inactive: 104%
52 | COc1ccc2nc(NP(=O)(c3ccccc3)c3ccccc3)sc2c1 | inactive: 103%
53 | COc1cc(I)ccc1[As](=O)(O)O | inactive: 107%
54 | CCOC(=O)c1ccc(NC(=O)C(C)(CCl)SC)cc1 (stereo unspecified) | inactive: 101%
55 | CCC(C)N(CC(C)C)C(=S)SC(NC(C)=O)C(Cl)(Cl)Cl (stereo unspecified) | inactive: 98.6%
56 | COP1(=S)c2c(C)nn(CCC#N)c2N=C(c2ccc(F)cc2)N1C (stereo unspecified) | inactive: 102%
57 | O=C(COc1ccccc1)OC1CN2CCC1CC2 (stereo unspecified) | inactive: 93.8%
58 | CCOC(=O)Nc1cccc([As](=O)(O)O)c1 | inactive: 105%
59 | Cc1cc(SC(NC=O)C(Cl)(Cl)Cl)ncn1 (stereo unspecified) | inactive: 99.9%
60 | O=P(Nc1ccccn1)(c1cccc2ccccc12)c1cccc2ccccc12 | inactive: 101%
61 | O=[N+]([O-])c1ccc(Nc2ccc(Oc3ccc([N+](=O)[O-])cc3[N+](=O)[O-])cc2)c([N+](=O)[O-])c1 | inactive: 96%
62 | CCOC(=O)Nc1ccc([As](=O)(O)O)c(O)c1 | inactive: 97.4%
63 | Cc1cc(SC(NC(=O)c2ccccc2)C(Cl)(Cl)Cl)nc(C(C)C)n1 (stereo unspecified) | inactive: 100%
64 | O=P1(Nc2ncccn2)COc2ccccc2OC1 | inactive: 104%
65 | Nc1cccc([As](=O)(O)c2ccccc2)c1 | inactive: 102%
66 | O=[As](O)(c1cccs1)c1cccs1 | inactive: 97.8%

From PubChem BioAssay AID1415 (NMMLSC, 2008)
